Laboratory results reported in patent EP4620956A1, “PARP1 INHIBITORS” (Zhejiang Yangli Pharmaceutical Technology Co., Ltd., priority 2022, dated 2024).

Columns and labels:
PARP7 = biological target: T1, PARP7 (Homo sapiens, UniProt Q7Z3E1); experiment: Inhibition of PARP7 enzyme activity (chemiluminescent assay kit); assay type: biochemical; conditions: ratio relative to the PARP1 enzyme activity
T1 construct: purchased BPS 80527
T1 sequence (Q7Z3E1 1-657): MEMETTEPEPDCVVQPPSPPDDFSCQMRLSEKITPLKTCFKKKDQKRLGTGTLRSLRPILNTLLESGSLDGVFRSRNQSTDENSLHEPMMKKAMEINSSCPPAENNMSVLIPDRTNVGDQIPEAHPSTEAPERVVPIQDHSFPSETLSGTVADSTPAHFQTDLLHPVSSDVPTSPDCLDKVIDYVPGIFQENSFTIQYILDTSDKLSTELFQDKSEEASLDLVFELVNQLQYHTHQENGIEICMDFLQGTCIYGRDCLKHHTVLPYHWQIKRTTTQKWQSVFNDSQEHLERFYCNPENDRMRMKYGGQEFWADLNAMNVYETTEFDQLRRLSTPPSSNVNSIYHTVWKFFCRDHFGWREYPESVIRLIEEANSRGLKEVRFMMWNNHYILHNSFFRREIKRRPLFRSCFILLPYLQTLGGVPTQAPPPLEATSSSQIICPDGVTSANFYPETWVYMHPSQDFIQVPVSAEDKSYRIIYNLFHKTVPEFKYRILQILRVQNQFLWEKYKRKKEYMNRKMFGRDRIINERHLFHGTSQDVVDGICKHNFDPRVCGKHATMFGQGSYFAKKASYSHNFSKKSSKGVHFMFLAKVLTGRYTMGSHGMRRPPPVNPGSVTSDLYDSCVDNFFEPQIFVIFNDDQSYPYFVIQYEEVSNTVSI

PARP11 = biological target: T2, PARP11 (Homo sapiens, UniProt Q9NR21); experiment: Inhibition of PARP11 enzyme activity (chemiluminescent assay kit); assay type: biochemical; conditions: ratio relative to the PARP1 enzyme activity
T2 construct: purchased BPS 80511
T2 sequence (Q9NR21 1-338): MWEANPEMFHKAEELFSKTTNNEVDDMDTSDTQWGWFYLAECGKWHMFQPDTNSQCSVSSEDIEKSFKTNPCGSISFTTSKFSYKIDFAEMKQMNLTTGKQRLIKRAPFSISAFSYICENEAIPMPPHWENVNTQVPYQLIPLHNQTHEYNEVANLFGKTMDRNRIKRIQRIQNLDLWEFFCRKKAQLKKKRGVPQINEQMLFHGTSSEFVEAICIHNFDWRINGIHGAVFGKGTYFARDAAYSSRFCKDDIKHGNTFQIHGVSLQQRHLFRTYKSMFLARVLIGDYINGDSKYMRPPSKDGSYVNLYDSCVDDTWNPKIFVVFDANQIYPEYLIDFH

SMILES | PARP7 multiple vs PARP1 (PARP7) | PARP11 multiple vs PARP1 (PARP11)
CCc1cc2ncc(CN3CCN(c4ccc(C(=O)NC)nc4)CC3)cc2[nH]c1=O [AZD5305, reference compound] | 3,710 | 
O=C(c1cc(Cc2n[nH]c(=O)c3ccccc23)ccc1F)N1CCN(C(=O)C2CC2)CC1 [Olaparib, olaparib] |  | 5,280
